Source: paper PMC9340770 (2022)

Legend:
[1] = target: T1, recombinant human SOS1 polypeptide (Homo sapiens, UniProt Q07889); conditions: read-out: SOS1 Binding Ki
T1 sequence (Q07889 560-1049): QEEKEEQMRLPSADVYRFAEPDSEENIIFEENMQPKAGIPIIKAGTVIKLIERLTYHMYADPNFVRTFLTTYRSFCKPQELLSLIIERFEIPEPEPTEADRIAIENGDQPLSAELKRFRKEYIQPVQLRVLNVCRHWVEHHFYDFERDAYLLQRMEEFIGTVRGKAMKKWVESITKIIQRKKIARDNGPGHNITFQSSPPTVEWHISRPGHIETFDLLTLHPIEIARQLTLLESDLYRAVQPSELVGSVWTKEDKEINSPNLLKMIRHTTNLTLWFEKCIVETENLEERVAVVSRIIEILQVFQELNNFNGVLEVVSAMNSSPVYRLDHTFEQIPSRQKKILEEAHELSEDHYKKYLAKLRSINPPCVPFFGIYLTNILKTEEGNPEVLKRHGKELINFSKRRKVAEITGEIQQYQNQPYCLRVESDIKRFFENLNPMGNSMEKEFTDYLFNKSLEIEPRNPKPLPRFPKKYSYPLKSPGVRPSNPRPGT

[2] = system: phosphorylated ERK1/2 (pERK) in MKN1 cells; experiment: cells; type: cell-based; conditions: Homo sapiens, MKN-1, read-out: MKN1 Cell IC50

Compound	Ki ([1]; HTRF displacement assay) [nM]	IC50 [2] [nM]	Ki [1] [nM]
Cc1c([C@@H](C)Nc2nnc(C)c3cnc(N4CCOCC4)cc23)cccc1C(F)(F)F [Compound 24]	0.91		
Cc1c([C@@H](C)Nc2nnc(C)c3ccc(N4CCN(C)C(=O)C4)cc23)cccc1C(F)(F)F [Compound 17]	0.43	74	
Cc1c(C#N)cccc1[C@@H](C)Nc1nnc(C)c2cc(C(F)(F)F)c(N3CCOCC3)cc12 [Compound 38]		779	95
Cc1c([C@@H](C)Nc2nnc(N(C)C)c3ccc(N4CCNCC4)cc23)cccc1C(F)(F)F [Compound 20]	1.1	176	

Like-named read-outs stand apart in the source and are kept apart here.
